What is called IC50 is the midpoint of a concentration-inhibition curve. The low end stands for inhibition by little substance, the high end for a need for much substance.

The source of these data is article PMC2607018, “Iodine Atoms: A New Molecular Feature for the Design of Potent Transthyretin Fibrillogenesis Inhibitors” (PLoS ONE, 2009).

The experiment deals with TTR variant Y78F (Homo sapiens, UniProt P02766, Y98F). The experiment is described as follows: Kinetic turbidity assay of acid induced fibril formation.

On to `Oc1cc(Cl)ccc1Oc1ccc(Cl)cc1Cl` [Triclosan, reference compound], for which the IC50 came out at 48 µM. In other words, the double-digit micromolar range.
